# AlphaSeq binding of Ab-95 light chain variants to a spike HR2 peptide

Reference: Engelhart et al. 2022, doi:10.1038/s41597-022-01779-4. File: FLAb, binding data.

Antigen: PDVDLGDISGINAS, a 14-residue peptide of the SARS-CoV-2 spike HR2 region.

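Phage display of a naive human antibody library on the peptide gave the parent. In library AAYL52, one, two or three CDR residues were substituted; doubles and triples were drawn at random. AlphaSeq pools MATa yeast showing the antibodies with MATalpha yeast showing the peptide. Binding brings cells together so that they mate, and sequencing counts the barcode pairs among the diploids. The ratio of observed to expected reads was calibrated, replicate by replicate, on BCL2-family standards whose Kd was known from biolayer interferometry. Mating was done three times.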

Parent scFv Ab-95: VH joined to VL by three GGGGS repeats. Changes lie in the light chain CDRs alone.
VH: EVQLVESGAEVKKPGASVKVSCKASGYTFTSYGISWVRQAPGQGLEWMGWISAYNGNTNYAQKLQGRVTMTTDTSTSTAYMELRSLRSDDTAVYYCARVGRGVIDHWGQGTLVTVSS
VL: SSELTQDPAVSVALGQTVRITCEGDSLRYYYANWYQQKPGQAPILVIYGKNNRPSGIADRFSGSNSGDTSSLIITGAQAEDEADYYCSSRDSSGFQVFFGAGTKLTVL

Substitutions are numbered in sequence along the VL above, starting at 1 (not Kabat).
Affinities are written as log10 Kd with Kd in nM; a lower number is a better binder.
The mean shown is taken over the replicates in which the pair was detected.
An entry "nd" has no value in the source: the pair was not observed among the diploids in any replicate. This suggests poor binding but is not conclusive.
For reference, the parent read 2.31 as the reference entry and 2.25 as a member of this library.
As a blank, each scFv also met three strains without target: over library AAYL52, 28% of these pairings were detected, typically at 3.91 and seldom below 2.90.

Variant E23A/S26D/N51K showed 4.58 (2 of 3 replicates).
Variant S88L/V97K/F98E showed 3.93 (2 of 3 replicates).
Variant A32S/R90W/D91Q showed 3.47 (3 of 3 replicates).
Variant S88T/F95Y/Q96D showed 3.91 (2 of 3 replicates).
Variant D25G/L27T showed 2.23 (3 of 3 replicates).
Variant R53P/S55H/S92A showed 4.52 (2 of 3 replicates).
Variant S92D/V97R showed 2.96 (2 of 3 replicates).
Variant R28Q/N52R/S55L showed 3.36 (3 of 3 replicates).
Variant D25H/Y30L/R90N showed 3.65 (2 of 3 replicates).
Variant D25R/Q96V/F98Q showed 2.74 (2 of 3 replicates).
Variant P54T/S89D/G94T showed 3.96 (2 of 3 replicates).
Variant E23F/G49K/R53D showed 4.91 (2 of 3 replicates).
Variant E23R/S26M showed 3.67 (3 of 3 replicates).
Variant R28V/G49H/S92G showed 3.71 (1 of 3 replicates).
Variant R28A/Y29F/S88P showed 3.13 (3 of 3 replicates).
Variant A32M/N51C/S89F showed 5.47 (1 of 3 replicates).
Variant N33T/P54A/V97N showed nd (0 of 3 replicates).
Variant E23V/N33I/R90Y showed nd (0 of 3 replicates).
Variant A32T/N51D/V97E showed 3.18 (3 of 3 replicates).
Variant S88D/S89G showed 3.46 (3 of 3 replicates).
Variant D91Q/S92P/Q96G showed 5.07 (1 of 3 replicates).
Variant G24A/R28A/G49Y showed nd (0 of 3 replicates).
Variant N51F/S55F showed 3.55 (2 of 3 replicates).
Variant Y29G/G49F/K50H showed 3.10 (2 of 3 replicates).
Variant G24F/G49L/G94A showed 4.44 (2 of 3 replicates).
Variant Y30G/P54C showed 0.61 (3 of 3 replicates).
Variant Y31H/R53F/S92W showed 3.15 (3 of 3 replicates).
Variant G24V/Y30T/Y31P showed 1.90 (3 of 3 replicates).
Variant S26L/G49D/F95W showed 4.60 (2 of 3 replicates).
Variant Y31H/R53N showed 2.68 (3 of 3 replicates).
Variant N33W/R90N/F98D showed 4.47 (2 of 3 replicates).
Variant N52I/S88N/S89G showed 2.80 (3 of 3 replicates).
Variant S26I/S89C/V97Y showed 4.32 (3 of 3 replicates).
Variant D25M/N51D/R90A showed 3.76 (1 of 3 replicates).
Variant S55Y/S88M/F95M showed 3.43 (2 of 3 replicates).
Variant A32S/G49S/F98N showed 3.90 (1 of 3 replicates).
Variant S26C/S55G showed 3.71 (3 of 3 replicates).
Variant D25F/K50G showed 2.61 (3 of 3 replicates).
Variant N51P/S88V showed 4.82 (2 of 3 replicates).
Variant Y31N/A32K/F98P showed 3.05 (2 of 3 replicates).
Variant G24W/S89R/F95V showed 3.45 (2 of 3 replicates).
Variant Y31Q/N51C/Q96I showed 2.78 (3 of 3 replicates).
Variant E23S/K50R/P54A showed 2.07 (3 of 3 replicates).
Variant Y30H/S89K/F95I showed 1.28 (3 of 3 replicates).
Variant N51Q/S88P showed 3.07 (3 of 3 replicates).
Variant G49S/P54A/G94W showed 3.12 (3 of 3 replicates).
Variant D25N/S26D/N52A showed 2.72 (3 of 3 replicates).
Variant N33D/S55Q/R90V showed nd (0 of 3 replicates).
Variant S26H/Y30R/S93Y showed 2.46 (3 of 3 replicates).

The 4 strongest on average among those seen in every replicate, once more:

For Y30G/P54C, the assay gave 0.61 (3 of 3 replicates).
For Y30H/S89K/F95I, the assay gave 1.28 (3 of 3 replicates).
For G24V/Y30T/Y31P, the assay gave 1.90 (3 of 3 replicates).
For E23S/K50R/P54A, the assay gave 2.07 (3 of 3 replicates).